Earlier results, collected in patent US8636973B2, “Method of producing pharmacologically pure crystals” (Biosyn Arzneimittel GmbH, priority 2010, dated 2014).

Conditions: Janitzki, solubility studies

Substance: sodium selenite [anhydrous material]
- temperature at which the form is stable / exists: above 38.5 °C
